Publication PMC2825141 (Journal of medicinal chemistry, 2009)
pIC50: −log10 of the molar value.

Target: T1, G9a (Homo sapiens, UniProt Q96KQ7)
T1 sequence (Q96KQ7 1-1210): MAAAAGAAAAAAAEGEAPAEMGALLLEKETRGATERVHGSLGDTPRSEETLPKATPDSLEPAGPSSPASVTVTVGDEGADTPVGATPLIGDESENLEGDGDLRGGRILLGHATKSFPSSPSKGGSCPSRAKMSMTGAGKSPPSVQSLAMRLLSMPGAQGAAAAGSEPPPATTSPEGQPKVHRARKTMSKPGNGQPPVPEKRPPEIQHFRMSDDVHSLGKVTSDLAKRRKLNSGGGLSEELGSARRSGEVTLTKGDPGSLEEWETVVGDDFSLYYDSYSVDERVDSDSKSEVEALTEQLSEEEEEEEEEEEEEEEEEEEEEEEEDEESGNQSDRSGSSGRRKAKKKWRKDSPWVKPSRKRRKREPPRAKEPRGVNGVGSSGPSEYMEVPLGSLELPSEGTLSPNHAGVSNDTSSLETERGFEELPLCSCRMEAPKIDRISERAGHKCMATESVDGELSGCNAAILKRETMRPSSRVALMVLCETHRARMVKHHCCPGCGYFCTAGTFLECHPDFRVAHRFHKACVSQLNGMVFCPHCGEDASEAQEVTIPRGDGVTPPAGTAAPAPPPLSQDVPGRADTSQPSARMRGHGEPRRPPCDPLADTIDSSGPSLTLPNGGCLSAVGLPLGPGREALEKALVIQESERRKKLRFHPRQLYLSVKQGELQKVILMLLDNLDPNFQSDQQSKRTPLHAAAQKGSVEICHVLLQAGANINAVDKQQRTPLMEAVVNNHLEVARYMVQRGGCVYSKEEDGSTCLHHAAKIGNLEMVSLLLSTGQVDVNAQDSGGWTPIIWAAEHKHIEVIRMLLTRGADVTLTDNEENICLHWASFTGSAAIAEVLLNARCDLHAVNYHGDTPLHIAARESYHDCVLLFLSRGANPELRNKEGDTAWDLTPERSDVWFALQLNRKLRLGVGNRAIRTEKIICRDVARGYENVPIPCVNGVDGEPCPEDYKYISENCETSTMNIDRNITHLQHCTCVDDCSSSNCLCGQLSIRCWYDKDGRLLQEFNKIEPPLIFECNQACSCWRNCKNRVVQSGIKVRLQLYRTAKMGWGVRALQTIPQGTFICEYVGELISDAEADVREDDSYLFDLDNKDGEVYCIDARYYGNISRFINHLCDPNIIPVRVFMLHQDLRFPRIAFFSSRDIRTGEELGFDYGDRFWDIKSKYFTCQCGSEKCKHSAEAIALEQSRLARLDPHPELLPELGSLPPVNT
Test: G9a AlphaScreen
Format: biochemical

**Q.** With `COc1cc2c(NC3CCN(C)CC3)nc(N3CCCN(C)CC3)nc2cc1OCCCN(C)C` [Compound 8] as the compound, how does the pIC50 read?
**A.** 6.54
